Data as given in ChEMBL document CHEMBL1157539, “Thousands of chemical starting points for antimalarial lead identification” (Nature, 2010).
For part of these data: What follows is the remainder of the data, with few or none of the highest values. This is a selection; strong and weak results do not stand in their true shares.

How the values were obtained:
Plasmodium falciparum = assay: GSK_TCMDC: Inhibition of Plasmodium falciparum 3D7 LDH activity, using an LDH reporter assay. Test compounds present at 2uM; assay type: functional, organism-based
[1] = GSK_TCMDC: Inhibition Frequency Index (IFI). The number of non-kinase HTS assays where a compound showed > 50 % inhibition, expressed as a percentage of the number of such assays in which the compound was tested (-0 is zero); assay type: functional

Row | Structure (SMILES) | inhibition (Plasmodium falciparum) [%] | IFI [1] [%]
1 | N=C(N)c1ccc(Oc2ccc(C(=N)N)cc2)cc1 | 0 | 0
2 | COc1ccc(Cc2cnc3nc(N)nc(N)c3c2C)cc1OC | 0 | 3.17
3 | CCCCCc1cnc2nc(N)nc(N)c2c1 | 0 | 2.07
